Source: ChEMBL document CHEMBL1955728, “3,5-Disubstituted indole derivatives as selective human neuronal nitric oxide synthase (nNOS) inhibitors” (Bioorg Med Chem Lett, 2012)

Organism: Homo sapiens
Assay: Selectivity ratio of IC50 for human eNOS to IC50 for human nNOS

## CN1CCC(c2c[nH]c3ccc(/N=C(\N)c4cccs4)cc23)CC1
  Ratio IC50: 24
